# Antibody variant affinities, Ab-95 light chain, assay 2

Target: peptide PDVDLGDISGINAS, taken from heptad repeat 2 (HR2) of SARS-CoV-2 spike.

Parent scFv Ab-95: VH joined to VL by three GGGGS repeats. Changes lie in the light chain CDRs alone.
VH: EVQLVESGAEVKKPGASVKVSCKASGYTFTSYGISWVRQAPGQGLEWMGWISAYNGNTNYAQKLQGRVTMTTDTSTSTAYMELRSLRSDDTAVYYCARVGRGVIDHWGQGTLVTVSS
VL: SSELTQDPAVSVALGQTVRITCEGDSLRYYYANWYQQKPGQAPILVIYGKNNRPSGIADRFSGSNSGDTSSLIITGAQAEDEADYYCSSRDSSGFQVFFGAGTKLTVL

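The library (AAYL52) carries one to three amino acid substitutions per variant, with no insertions or deletions. In AlphaSeq, yeast of one mating type display the scFv and yeast of the other type display the target. Mating (16 h, 30 °C) was followed by selection of diploids and sequencing of their barcodes. Each replicate has its own calibration line, from reference interactions of the BCL2 family. Mating was done three times.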

Each variant is given by its three light chain CDRs, as the data file delimits them; those of the parent are EGDSLRYYYAN, GKNNRPS, SSRDSSGFQVF. Numbers give log10(Kd / nM), so 0 is 1 nM and 3 is 1 µM. Smaller is tighter. Replicates are averaged; those with no signal do not enter the mean. Where no diploid with the target was found in any replicate, the entry reads "nd": below detection, most likely a poor binder, though not proof of it. Three control strains display no target. For library AAYL52, 28% of the pairings with them gave a signal, with a median of 3.91 and one signal in twenty below 2.90, so weak values seen in few replicates may be background.

{"CDR-L1": "EGDSLWYYYAN", "CDR-L2": "GKNNRYS", "CDR-L3": "KSRDSSGFQVF", "log10 Kd (nM), mean": "4.18", "detected": "1 of 3"}
{"CDR-L1": "EGKSLRYYYAN", "CDR-L2": "GKNWRPS", "CDR-L3": "SSRMSSGFQVF", "log10 Kd (nM), mean": "4.10", "detected": "2 of 3"}
{"CDR-L1": "EGDSLRYYYAN", "CDR-L2": "GINNRRS", "CDR-L3": "SSRDSSGFQVF", "log10 Kd (nM), mean": "3.70", "detected": "2 of 3"}
{"CDR-L1": "EGDSLRYYYAN", "CDR-L2": "GKNNRPS", "CDR-L3": "VSNDSSGFQVS", "log10 Kd (nM), mean": "nd", "detected": "0 of 3"}
{"CDR-L1": "EGDSLRYYYAN", "CDR-L2": "GKNQRPS", "CDR-L3": "SSRASSGFQQF", "log10 Kd (nM), mean": "2.57", "detected": "3 of 3"}
{"CDR-L1": "EGDSLRYYYAN", "CDR-L2": "GKNNRPS", "CDR-L3": "SSRDSAGVQVV", "log10 Kd (nM), mean": "2.55", "detected": "3 of 3"}
{"CDR-L1": "EGDSLRYYFAN", "CDR-L2": "GKENRPS", "CDR-L3": "SSRDKSGFQVF", "log10 Kd (nM), mean": "1.67", "detected": "3 of 3"}
{"CDR-L1": "EGDSERYYYAN", "CDR-L2": "GKDNRIS", "CDR-L3": "SSRDSSGFQVF", "log10 Kd (nM), mean": "4.24", "detected": "2 of 3"}
{"CDR-L1": "EGDSLRYYDAN", "CDR-L2": "HKNNSPS", "CDR-L3": "SSRDSSGFQVF", "log10 Kd (nM), mean": "3.44", "detected": "3 of 3"}
{"CDR-L1": "ETDVLRYYAAN", "CDR-L2": "GKNNRPS", "CDR-L3": "SSRDSSGFQVF", "log10 Kd (nM), mean": "3.99", "detected": "3 of 3"}
{"CDR-L1": "SGDSLRYYYNN", "CDR-L2": "GKNNRPS", "CDR-L3": "SSRCSSGFQVF", "log10 Kd (nM), mean": "3.55", "detected": "3 of 3"}
{"CDR-L1": "EGDSARYYNAN", "CDR-L2": "GKNPRPS", "CDR-L3": "SSRDSSGFQVF", "log10 Kd (nM), mean": "nd", "detected": "0 of 3"}
{"CDR-L1": "EGDSLRYYYAN", "CDR-L2": "GKVNRPE", "CDR-L3": "SSRDSSGFQVL", "log10 Kd (nM), mean": "3.36", "detected": "3 of 3"}
{"CDR-L1": "CGDSLLYYYAR", "CDR-L2": "GKNNRPS", "CDR-L3": "SSRDSSGFQVF", "log10 Kd (nM), mean": "3.86", "detected": "3 of 3"}
{"CDR-L1": "EGCSLRYYYAN", "CDR-L2": "GLNYRPS", "CDR-L3": "SSRDSSGFQVF", "log10 Kd (nM), mean": "4.10", "detected": "1 of 3"}
{"CDR-L1": "ERDSLRYYYAN", "CDR-L2": "GKNQRPS", "CDR-L3": "SSRDSSGGQVF", "log10 Kd (nM), mean": "nd", "detected": "0 of 3"}
{"CDR-L1": "EGDSLRYYYAN", "CDR-L2": "SKNNRPS", "CDR-L3": "SSRVSSGFQVF", "log10 Kd (nM), mean": "nd", "detected": "0 of 3"}
{"CDR-L1": "EGDSLRYYYAN", "CDR-L2": "GKNNYPS", "CDR-L3": "PSRDSSGFRVF", "log10 Kd (nM), mean": "4.52", "detected": "2 of 3"}
{"CDR-L1": "EGCSLRYYEAN", "CDR-L2": "GKNNRPS", "CDR-L3": "ASRDSSGFQVF", "log10 Kd (nM), mean": "2.64", "detected": "3 of 3"}
{"CDR-L1": "EGDSDRYYYAN", "CDR-L2": "GKNNRPS", "CDR-L3": "SPRDSSGFQVF", "log10 Kd (nM), mean": "3.68", "detected": "3 of 3"}
{"CDR-L1": "EGDSLRYYYAN", "CDR-L2": "GKNNRPS", "CDR-L3": "SERDSSGFQVL", "log10 Kd (nM), mean": "3.80", "detected": "3 of 3"}
{"CDR-L1": "EGDSQRYYYAN", "CDR-L2": "GKNNRDS", "CDR-L3": "SERDSSGFQVF", "log10 Kd (nM), mean": "4.59", "detected": "2 of 3"}
{"CDR-L1": "EGKSLRYYEAN", "CDR-L2": "GKNNRPV", "CDR-L3": "SSRDSSGFQVF", "log10 Kd (nM), mean": "1.08", "detected": "3 of 3"}

From the list, the first 3 with no signal in any replicate:

CDR-L1	CDR-L2	CDR-L3	log10 Kd (nM), mean	detected
EGDSLRYYYAN	GKNNRPS	VSNDSSGFQVS	nd	0 of 3
EGDSARYYNAN	GKNPRPS	SSRDSSGFQVF	nd	0 of 3
ERDSLRYYYAN	GKNQRPS	SSRDSSGGQVF	nd	0 of 3

Source: Engelhart et al. 2022 (doi:10.1038/s41597-022-01779-4), MIT Lincoln Laboratory and A-Alpha Bio; data file from the FLAb repository.